Apparent affinities of Ab-14 variants for a coronavirus HR2 peptide

Target: peptide PDVDLGDISGINAS, taken from heptad repeat 2 (HR2) of SARS-CoV-2 spike.

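Phage display of a naive human antibody library on the peptide gave the parent. Library AAYL50 holds single substitutions and randomly drawn double and triple substitutions in the CDRs. Affinity was read by AlphaSeq, a pooled yeast mating assay with surface-displayed partners. After mating in shaken culture at 30 °C for 16 h, diploids were selected and their barcode pairs sequenced. Read counts were normalised to the haploid input and turned into Kd by a linear fit to BCL2-family pairs of known affinity, for each replicate. Mating was done three times.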

Parent scFv Ab-14: VH joined to VL by the linker GGGGSGGGGSGGGGS. Changes lie in the light chain CDRs alone.
VH: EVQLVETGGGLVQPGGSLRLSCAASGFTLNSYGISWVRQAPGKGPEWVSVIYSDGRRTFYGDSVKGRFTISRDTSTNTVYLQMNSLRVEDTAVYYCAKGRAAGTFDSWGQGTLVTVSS
VL: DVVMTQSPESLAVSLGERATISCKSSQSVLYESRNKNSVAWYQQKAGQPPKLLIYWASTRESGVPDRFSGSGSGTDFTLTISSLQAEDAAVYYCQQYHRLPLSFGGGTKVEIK

The parent's light chain CDRs are KSSQSVLYESRNKNSVA, WASTRES, QQYHRLPLS; each variant's own CDRs replace them letter for letter. Affinities are written as log10 Kd with Kd in nM; a lower number is a better binder. Replicates are averaged; those with no signal do not enter the mean. An entry "n.d." has no value in the source: the pair was not observed among the diploids in that replicate. This suggests poor binding but is not conclusive. As a blank, each scFv also met three strains without target: over library AAYL50, 18% of these pairings were detected, typically at 4.19 and seldom below 2.99. The control count says in how many pairings with the empty strains this scFv gave a signal, with their mean in brackets.

| # | CDR-L1 | CDR-L2 | CDR-L3 | replicates, log10 nM | log10 Kd (nM), mean | control signals |
|---|---|---|---|---|---|---|
| 1 | KSSQSVLEESRNKSSVA | WAWTRES | QQYHRLPLS | 1.36 1.38 1.35 | 1.36 | 6/9 (4.79) |
| 2 | KSSQSRLYDSRNKNSVA | WASTRES | QQDHRLPLS | 1.52 1.71 1.87 | 1.70 | 1/9 (4.91) |
| 3 | KSSQSVLYEVRNKNSVA | WASTDEH | QQYHRLPLS | n.d. 3.89 n.d. | 3.89 | 1/9 (3.39) |
| 4 | KSSQSCLYGSRNKESVA | WASTRES | QQYHRLPLS | 1.47 1.66 1.76 | 1.63 | 1/9 (3.19) |
| 5 | GSSQSVLYESRNKNMVA | WASTRES | QQYHRLVLS | n.d. n.d. n.d. | n.d. | 0/9 |
| 6 | KSSQSVLYESRNKNSVA | WMSNRES | QQYHRLPLS | 3.39 2.87 3.33 | 3.20 | 6/9 (4.87) |
| 7 | YSSQSVLYESRNKNSVA | WASHRES | QIYHRLPLS | n.d. n.d. n.d. | n.d. | 2/9 (4.03) |
| 8 | KSSQSVLYESRNKNSVA | WASTRNS | QQYHVLDLS | 3.11 n.d. n.d. | 3.11 | 0/9 |
| 9 | KSSQSVLYESRNKNSVA | WYSTRES | AQYHRLHLS | n.d. 2.50 n.d. | 2.50 | 2/9 (3.83) |
| 10 | KMSQSVLYESRNKNSVA | WASTRES | LQYHRLPLQ | n.d. n.d. n.d. | n.d. | 1/9 (3.83) |
| 11 | KSSQSVLYECRNKNSVA | WATTRED | QQYHRLPLS | 0.31 0.70 0.37 | 0.46 | 0/9 |
| 12 | KSSQSVQYESRNKNSVA | WASTRES | QQYHRLALS | 1.03 0.88 0.76 | 0.89 | 5/9 (4.13) |
| 13 | KSSQSVLYESRNKNSVA | WASTRES | QGYHRLPLS | 4.10 2.78 2.37 | 3.08 | 3/9 (4.65) |
| 14 | KSSQSVLYESRNCNSVA | WASTFES | QQYHMLPLS | 3.91 n.d. n.d. | 3.91 | 2/9 (4.36) |
| 15 | KSSQSVLYESRNKNSVA | WQRTRIS | QQYHRLPLS | n.d. 5.21 n.d. | 5.21 | 1/9 (4.57) |
| 16 | KSSQSVLSESRNKNSVA | WARTREV | QQYHRLPLS | 1.08 1.25 1.24 | 1.19 | 0/9 |
| 17 | KSSQSVLYESRNNNSVA | WASTRES | QMYHHLPLS | 4.12 3.62 3.34 | 3.70 | 3/9 (4.79) |
| 18 | KSSQSVLYESRNKNSTA | WASTNES | QQYHRLGLS | 6.38 n.d. n.d. | 6.38 | 3/9 (4.50) |
| 19 | KSSQSVLYESRNKNSLA | WASTRES | QQYWRLMLS | n.d. n.d. n.d. | n.d. | 0/9 |
| 20 | KSSQSVLYESRNKNSVA | WASTRES | QQYHYNALS | n.d. 3.83 n.d. | 3.83 | 1/9 (2.78) |
| 21 | KSITDVLYESRNKNSVA | WASTRES | QQYHRLPLS | 0.51 0.77 1.52 | 0.93 | 0/9 |
| 22 | KSSQSVLYESRYKNSVA | WASTRES | RLYHRLPLS | 3.97 n.d. n.d. | 3.97 | 1/9 (1.50) |
| 23 | KSSQSVLYESRNKNSVA | WASTRES | QQYHPSPLS | 5.02 n.d. n.d. | 5.02 | 4/9 (3.92) |
| 24 | KSSASVLYESRWKNSVA | WASTRES | QQYHRLDLS | n.d. n.d. n.d. | n.d. | 3/9 (3.94) |
| 25 | KMSQSVLYCSRNKNSVP | WASTRES | QQYHRLPLS | 3.34 3.16 6.18 | 4.23 | 3/9 (4.65) |
| 26 | KSSQSVLYESRNKNRVA | WASTREA | QQNHRLPLS | n.d. 3.67 n.d. | 3.67 | 3/9 (3.90) |
| 27 | KSSQSVLYESRNKNLLA | WASTRMS | QQYHRLPLS | 2.39 n.d. n.d. | 2.39 | 1/9 (3.65) |
| 28 | KSSVSVLYESRTKNSVA | WASTRES | QQYHRLPLS | 1.01 1.03 1.07 | 1.04 | 0/9 |
| 29 | KSSQSVLYKSRNKNSVA | WASTGES | QQYWRLPLS | n.d. n.d. n.d. | n.d. | 1/9 (4.03) |
| 30 | KSSQSVLYESRNKNSVY | WASTRES | QKYHRHPLS | 4.24 n.d. n.d. | 4.24 | 2/9 (3.61) |
| 31 | KSSQSVLYESRNKNSVA | WASTRES | QRYHRLPWS | 0.94 1.29 1.22 | 1.15 | 2/9 (3.23) |
| 32 | KSSQAVSYESRNKNSVA | WMSTRES | QQYHRLPLS | 2.18 1.66 2.68 | 2.18 | 0/9 |
| 33 | KSSKSVLYESRNKNSVA | EASGRES | QQYHRLPLS | 0.24 0.54 0.36 | 0.38 | 2/9 (4.48) |
| 34 | KLSQSVLYESRNKHSVA | WASTRES | QQYHRHPLS | 0.30 0.37 0.49 | 0.39 | 0/9 |
| 35 | KSSQSVYYESRNKNSVA | WAHWRES | QQYHRLPLS | 2.51 1.91 2.25 | 2.22 | 1/9 (2.88) |
| 36 | KSSQSVLYESRNKCSVA | WTSTRES | TQYHRLPLS | 2.30 2.30 2.64 | 2.41 | 1/9 (3.08) |
| 37 | KSSQSVLYESYDKNSVA | WASTRES | CQYHRLPLS | n.d. n.d. n.d. | n.d. | 0/9 |
| 38 | KSSQSVLHEERNKNSVA | WASTRES | QQKHRLPLS | 0.99 1.14 1.02 | 1.05 | 1/9 (3.83) |
| 39 | KSSQSVLYESRNRNSVA | WASTPES | QQCHRLPLS | n.d. n.d. n.d. | n.d. | 0/9 |
| 40 | YSSQSVLYESRNKSSVA | WASTRES | QQYHREPLS | 1.75 1.79 1.80 | 1.78 | 2/9 (4.44) |
| 41 | KSSQSVTYWSRNKNSVA | WASTRES | RQYHRLPLS | n.d. n.d. n.d. | n.d. | 3/9 (4.35) |
| 42 | KSSQSVLYESRNKNSVA | WASTRLS | QAYHRLVLS | n.d. n.d. n.d. | n.d. | 0/9 |
| 43 | KSSQSVLNERRKKNSVA | WASTRES | QQYHRLPLS | n.d. n.d. 3.37 | 3.37 | 1/9 (4.59) |
| 44 | KSSFSVLYESRNKNSVA | WASHRES | QQYHRLKLS | n.d. n.d. n.d. | n.d. | 0/9 |
| 45 | KSSQSTGYETRNKNSVA | WASTRES | QQYHRLPLS | 0.81 0.97 0.59 | 0.79 | 0/9 |
| 46 | KSSQSVLYESWNKNEVA | WASTRES | QQYHRLPLS | n.d. 3.85 3.58 | 3.72 | 3/9 (5.11) |
| 47 | KSSQSVAYESRNKNSVA | WASRRES | QQYMRLPLS | 0.52 1.07 0.70 | 0.76 | 0/9 |
| 48 | KGSQSVLYESRNKNSVA | WASTRES | QQYHRLPLS | 2.97 2.58 4.04 | 3.20 | 2/9 (4.01) |
| 49 | LSSQMVLYESRNKNSVA | WASTRES | QQAHRLPLS | n.d. 2.61 n.d. | 2.61 | 0/9 |
| 50 | KSSQSVLYESRNKSSVA | WASTRES | QQTHRDPLS | n.d. 4.43 n.d. | 4.43 | 4/9 (4.14) |
| 51 | KSSQSGKYESRNKNSVA | WASTRES | QQYHNLPLS | 1.08 1.37 1.45 | 1.30 | 2/9 (4.86) |
| 52 | KSEQSDLYESRNKNSVA | WACTRES | QQYHRLPLS | n.d. n.d. 4.48 | 4.48 | 1/9 (4.42) |

Repeated from above, the 7 best binders with a signal in all replicates:

CDR-L1	CDR-L2	CDR-L3	replicates, log10 nM	log10 Kd (nM), mean	control signals
KSSKSVLYESRNKNSVA	EASGRES	QQYHRLPLS	0.24 0.54 0.36	0.38	2/9 (4.48)
KLSQSVLYESRNKHSVA	WASTRES	QQYHRHPLS	0.30 0.37 0.49	0.39	0/9
KSSQSVLYECRNKNSVA	WATTRED	QQYHRLPLS	0.31 0.70 0.37	0.46	0/9
KSSQSVAYESRNKNSVA	WASRRES	QQYMRLPLS	0.52 1.07 0.70	0.76	0/9
KSSQSTGYETRNKNSVA	WASTRES	QQYHRLPLS	0.81 0.97 0.59	0.79	0/9
KSSQSVQYESRNKNSVA	WASTRES	QQYHRLALS	1.03 0.88 0.76	0.89	5/9 (4.13)
KSITDVLYESRNKNSVA	WASTRES	QQYHRLPLS	0.51 0.77 1.52	0.93	0/9

Values reported by Engelhart et al. 2022, doi:10.1038/s41597-022-01779-4 (FLAb copy).